According to patent publication US20140030260A1, “METHODS AND COMPOSITIONS TO ELIMINATE CHRONIC LYMPHOCYTIC LEUKEMIA AND OTHER HEMATOLOGIC MALIGNANT CELLS IN STROMAL MICROENVIRONMENT FOR CANCER THERAPY” (BOARD OF REGENTS, THE UNIVERSITY OF TEXAS SYSTEM, priority 2010, published 2014):

Tested on: primary leukemia cells (CLL)
Assay: Viability of primary CLL cells cultured alone or with stromal cells, flow cytometry after annexin-V/PI double-staining
Details: patient #10; different types of stromal cells; 50 μM selecticine, 20 μM F-ara-A or 20 μM oxaliplatin, 2 days

oxaliplatin [reference compound] was tested, and the “effect of stromal cells on the drug's cytotoxicity in CLL cells” value was “protected”.
